Experimental data: patent US6753155B1, “Protein biomarker for mustard chemical injury” (dated 2004)

Tested on: mustard-stimulated protease
Assay: Inhibition of CEES-induced protease stimulation in NHEK (CPSPA), agents in the extracellular medium
Settings: cycloheximide 35 μM in extracellular medium; 200 μM CEES

C[C@@H]1C[C@@H]([C@H](O)CC2CC(=O)NC(=O)C2)C(=O)[C@@H](C)C1
inhibition of CEES-induced protease stimulation: completely inhibited
